Source: publication PMC12350791
This is one part of the list.

Protein sequences, listed by entry. Tags and fused reporters are not part of them. Lines headed by an entry give the natural chain unless they say otherwise; changes in a name come on top.
UniProt Q96JB5: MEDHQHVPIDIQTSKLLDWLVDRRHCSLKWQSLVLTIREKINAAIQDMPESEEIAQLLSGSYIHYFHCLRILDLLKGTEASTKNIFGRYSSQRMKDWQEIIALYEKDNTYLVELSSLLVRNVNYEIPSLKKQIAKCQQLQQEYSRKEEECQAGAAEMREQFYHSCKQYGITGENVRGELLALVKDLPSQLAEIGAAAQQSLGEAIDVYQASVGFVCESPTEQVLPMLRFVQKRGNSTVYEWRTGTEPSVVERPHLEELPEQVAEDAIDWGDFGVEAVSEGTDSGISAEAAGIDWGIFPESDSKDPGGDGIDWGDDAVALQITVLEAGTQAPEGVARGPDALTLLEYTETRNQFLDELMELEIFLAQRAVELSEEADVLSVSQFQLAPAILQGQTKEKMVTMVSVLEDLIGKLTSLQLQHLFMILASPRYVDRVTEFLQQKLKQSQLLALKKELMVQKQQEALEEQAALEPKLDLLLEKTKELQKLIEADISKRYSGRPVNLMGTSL

Target: CDK5RAP3 (UniProt Q96JB5)
Experiment: cross-linking mass spectrometry
Settings: DSBSO, in cells or nuclear extract, not told apart

## UFL1, O94874
  cross-linked residues: K130 - K440
